The compounds below were run against human recombinant 5-HT2A receptor (Homo sapiens (Human), UniProt P28223). Conditions: read-out: h-5-HT2A Ki.

Amino acid sequences for entries named in this document (tags omitted). Residues count along the entry.
UniProt P28223, whole entry: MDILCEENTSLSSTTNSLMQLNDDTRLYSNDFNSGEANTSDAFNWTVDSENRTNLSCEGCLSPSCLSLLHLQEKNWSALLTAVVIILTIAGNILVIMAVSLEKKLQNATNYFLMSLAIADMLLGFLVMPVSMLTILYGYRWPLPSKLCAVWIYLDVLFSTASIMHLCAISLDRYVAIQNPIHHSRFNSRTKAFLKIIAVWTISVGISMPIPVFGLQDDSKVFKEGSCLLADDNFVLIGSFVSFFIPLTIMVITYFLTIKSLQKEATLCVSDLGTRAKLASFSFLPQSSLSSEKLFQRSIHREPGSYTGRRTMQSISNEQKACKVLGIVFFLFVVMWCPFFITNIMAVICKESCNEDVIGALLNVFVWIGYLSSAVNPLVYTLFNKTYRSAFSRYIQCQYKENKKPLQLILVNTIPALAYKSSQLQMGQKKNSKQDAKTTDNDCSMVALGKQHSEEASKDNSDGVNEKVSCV
UniProt P28335, 33-458 limits assumed: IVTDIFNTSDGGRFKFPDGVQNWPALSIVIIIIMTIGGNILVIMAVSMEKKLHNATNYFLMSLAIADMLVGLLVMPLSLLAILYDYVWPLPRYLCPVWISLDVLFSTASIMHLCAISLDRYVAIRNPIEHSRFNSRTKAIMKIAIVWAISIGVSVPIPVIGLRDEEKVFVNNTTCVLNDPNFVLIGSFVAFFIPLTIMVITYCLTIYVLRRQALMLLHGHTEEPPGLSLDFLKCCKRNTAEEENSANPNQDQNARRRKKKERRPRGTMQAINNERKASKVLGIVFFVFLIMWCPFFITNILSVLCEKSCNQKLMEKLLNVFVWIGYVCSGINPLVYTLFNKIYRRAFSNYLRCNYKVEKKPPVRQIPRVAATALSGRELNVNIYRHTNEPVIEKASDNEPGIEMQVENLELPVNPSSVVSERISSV

| Structure (SMILES) | Ki |
| --- | --- |
| CC(C)COc1ccc(CNC(=O)N(Cc2ncc(F)cn2)C2CCN(C)CC2)cc1 | 10 to 100 nM |
| Cc1cc(CN(C(=O)NCc2ccc(OCC(C)C)cc2)C2CCN(C)CC2)no1 | 10 to 100 nM |
| CC(C)COc1ccc(CNC(=O)N(Cc2nccc3ccccc23)C2CCN(C)CC2)cc1 | 10 to 100 nM |
| CC(C)COc1ccc(CNC(=O)N(Cc2cc[nH]c2)C2CCN(C)CC2)cc1 | 10 to 100 nM |
| CC(C)COc1ccc(CNC(=O)N(Cc2cc(F)ccn2)C2CCN(C)CC2)cc1 | 10 to 100 nM |
| Cc1cc(CN(C(=O)NCc2ccc(OCC(C)C)cc2)C2CCN(C)CC2)nn1CF | 10 to 100 nM |
| CC(C)COc1ccc(CNC(=O)N(Cc2nccs2)C2CCN(C)CC2)cc1 | 10 to 100 nM |
| CC(C)COc1ccc(CNC(=O)N(Cc2cocn2)C2CCN(C)CC2)cc1 | 10 to 100 nM |
| COCc1ccc(CNC(=O)N(Cc2ccc(F)cn2)C2CCN(C)CC2)cc1 | 10 to 100 nM |
| CC(C)COc1ccc(CNC(=O)N(Cc2cccc(F)n2)C2CCN(C)CC2)cc1 | 10 to 100 nM |
| CC(C)COc1ccc(CNC(=O)N(Cc2ccc(C#N)cn2)C2CCN(C)CC2)cc1 | 10 to 100 nM |
| CC(C)COc1ccc(CNC(=O)N(Cc2ncccc2F)C2CCN(C)CC2)cc1 | 10 to 100 nM |

These compounds were tested against human recombinant 5-HT2C receptor (Homo sapiens (Human), UniProt P28335). Conditions: read-out: h5-HT2C Ki.

| Structure (SMILES) | Ki |
| --- | --- |
| CC(C)COc1ccc(CNC(=O)N(Cc2cn(C)cn2)C2CCN(C)CC2)cc1 | 10 to 100 nM |
| CC(C)COc1ccc(CNC(=O)N(Cc2ncc(F)cn2)C2CCN(C)CC2)cc1 | 10 to 100 nM |
| CN1CCC(N(Cc2ccc(F)cn2)C(=O)NCc2ccc(OC(F)F)cc2)CC1 | 10 to 100 nM |
| COc1ccc(CNC(=O)N(Cc2ccc(F)cn2)C2CCNCC23CC3)cc1 (racemic) | 10 to 100 nM |
| CC(C)COc1ccc(CNC(=O)N(Cc2ccc(C(F)(F)F)cn2)C2CCN(C)CC2)cc1 | 10 to 100 nM |
| Cc1csc(CN(C(=O)NCc2ccc(OCC(C)C)cc2)C2CCN(C)CC2)c1 | 10 to 100 nM |
| CN1CCC(N(Cc2ccc(F)cn2)C(=O)NCc2ccc(OCC3CC3)cc2)CC1 | 10 to 100 nM |
| CC(C)COc1ccc(CNC(=O)N(Cc2ccccn2)C2CCN(C)CC2)cc1 | 10 to 100 nM |
| CC(C)COc1ccc(CNC(=O)N(Cc2ccc(F)cn2)C2CCN(C)CC2(F)F)cc1 (racemic) | 10 to 100 nM |
| CC(C)COc1ccc(CNC(=O)N(Cc2cccs2)C2CCN(C)CC2)cc1 | 10 to 100 nM |
| CC(C)COc1ccc(CNC(=O)N(Cc2cccc3cc[nH]c23)C2CCN(C)CC2)cc1 | 10 to 100 nM |
| CC(C)COc1ccc(CNC(=O)N(Cc2ncc(F)cc2F)C2CCN(C)CC2)cc1 | 10 to 100 nM |
| COc1ccc(CN(C(=O)NCc2ccc(OCC(C)C)cc2)C2CCN(C)CC2)nc1 | 10 to 100 nM |
| Cc1ccc(CN(C(=O)NCc2ccc(OCC(C)C)cc2)C2CCN(C)CC2)s1 | 10 to 100 nM |
| CC(C)COc1ccc(CNC(=O)N(Cc2ccc(F)cn2)[C@@H]2CCN3CCC[C@@H]3C2)cc1 (racemic) | 10 to 100 nM |
| CC(C)COc1ccc(CNC(=O)N(Cc2cccc3cccnc23)C2CCN(C)CC2)cc1 | 10 to 100 nM |

Same assay, conditions: read-out: h-5-HT2C Ki

| Structure (SMILES) | Ki |
| --- | --- |
| Cc1cc(CN(C(=O)NCc2ccc(OCC(C)C)cc2)C2CCN(C)CC2)nn1CF | 10 to 100 nM |
| CC(C)COc1ccc(CNC(=O)N(Cc2cc(F)n(C)n2)C2CCN(C)CC2)cc1 | 10 to 100 nM |
| CC(C)COc1ccc(CNC(=O)N(Cc2ccn(C)n2)[C@H]2CCNC[C@H]2F)cc1 | 10 to 100 nM |

Source: patent publication US12527775B2 (priority 2020, dated 2026)
